Measured values published in ChEMBL document CHEMBL1141182, “Selective benzopyranone and pyrimido[2,1-a]isoquinolin-4-one inhibitors of DNA-dependent protein kinase: synthesis, structure-activity studies, and radiosensitization of a human tumor cell line in vitro” (J Med Chem, 2005).

Chains of the proteins cited; added tags and fusions are not shown.
UniProt P78527, whole entry: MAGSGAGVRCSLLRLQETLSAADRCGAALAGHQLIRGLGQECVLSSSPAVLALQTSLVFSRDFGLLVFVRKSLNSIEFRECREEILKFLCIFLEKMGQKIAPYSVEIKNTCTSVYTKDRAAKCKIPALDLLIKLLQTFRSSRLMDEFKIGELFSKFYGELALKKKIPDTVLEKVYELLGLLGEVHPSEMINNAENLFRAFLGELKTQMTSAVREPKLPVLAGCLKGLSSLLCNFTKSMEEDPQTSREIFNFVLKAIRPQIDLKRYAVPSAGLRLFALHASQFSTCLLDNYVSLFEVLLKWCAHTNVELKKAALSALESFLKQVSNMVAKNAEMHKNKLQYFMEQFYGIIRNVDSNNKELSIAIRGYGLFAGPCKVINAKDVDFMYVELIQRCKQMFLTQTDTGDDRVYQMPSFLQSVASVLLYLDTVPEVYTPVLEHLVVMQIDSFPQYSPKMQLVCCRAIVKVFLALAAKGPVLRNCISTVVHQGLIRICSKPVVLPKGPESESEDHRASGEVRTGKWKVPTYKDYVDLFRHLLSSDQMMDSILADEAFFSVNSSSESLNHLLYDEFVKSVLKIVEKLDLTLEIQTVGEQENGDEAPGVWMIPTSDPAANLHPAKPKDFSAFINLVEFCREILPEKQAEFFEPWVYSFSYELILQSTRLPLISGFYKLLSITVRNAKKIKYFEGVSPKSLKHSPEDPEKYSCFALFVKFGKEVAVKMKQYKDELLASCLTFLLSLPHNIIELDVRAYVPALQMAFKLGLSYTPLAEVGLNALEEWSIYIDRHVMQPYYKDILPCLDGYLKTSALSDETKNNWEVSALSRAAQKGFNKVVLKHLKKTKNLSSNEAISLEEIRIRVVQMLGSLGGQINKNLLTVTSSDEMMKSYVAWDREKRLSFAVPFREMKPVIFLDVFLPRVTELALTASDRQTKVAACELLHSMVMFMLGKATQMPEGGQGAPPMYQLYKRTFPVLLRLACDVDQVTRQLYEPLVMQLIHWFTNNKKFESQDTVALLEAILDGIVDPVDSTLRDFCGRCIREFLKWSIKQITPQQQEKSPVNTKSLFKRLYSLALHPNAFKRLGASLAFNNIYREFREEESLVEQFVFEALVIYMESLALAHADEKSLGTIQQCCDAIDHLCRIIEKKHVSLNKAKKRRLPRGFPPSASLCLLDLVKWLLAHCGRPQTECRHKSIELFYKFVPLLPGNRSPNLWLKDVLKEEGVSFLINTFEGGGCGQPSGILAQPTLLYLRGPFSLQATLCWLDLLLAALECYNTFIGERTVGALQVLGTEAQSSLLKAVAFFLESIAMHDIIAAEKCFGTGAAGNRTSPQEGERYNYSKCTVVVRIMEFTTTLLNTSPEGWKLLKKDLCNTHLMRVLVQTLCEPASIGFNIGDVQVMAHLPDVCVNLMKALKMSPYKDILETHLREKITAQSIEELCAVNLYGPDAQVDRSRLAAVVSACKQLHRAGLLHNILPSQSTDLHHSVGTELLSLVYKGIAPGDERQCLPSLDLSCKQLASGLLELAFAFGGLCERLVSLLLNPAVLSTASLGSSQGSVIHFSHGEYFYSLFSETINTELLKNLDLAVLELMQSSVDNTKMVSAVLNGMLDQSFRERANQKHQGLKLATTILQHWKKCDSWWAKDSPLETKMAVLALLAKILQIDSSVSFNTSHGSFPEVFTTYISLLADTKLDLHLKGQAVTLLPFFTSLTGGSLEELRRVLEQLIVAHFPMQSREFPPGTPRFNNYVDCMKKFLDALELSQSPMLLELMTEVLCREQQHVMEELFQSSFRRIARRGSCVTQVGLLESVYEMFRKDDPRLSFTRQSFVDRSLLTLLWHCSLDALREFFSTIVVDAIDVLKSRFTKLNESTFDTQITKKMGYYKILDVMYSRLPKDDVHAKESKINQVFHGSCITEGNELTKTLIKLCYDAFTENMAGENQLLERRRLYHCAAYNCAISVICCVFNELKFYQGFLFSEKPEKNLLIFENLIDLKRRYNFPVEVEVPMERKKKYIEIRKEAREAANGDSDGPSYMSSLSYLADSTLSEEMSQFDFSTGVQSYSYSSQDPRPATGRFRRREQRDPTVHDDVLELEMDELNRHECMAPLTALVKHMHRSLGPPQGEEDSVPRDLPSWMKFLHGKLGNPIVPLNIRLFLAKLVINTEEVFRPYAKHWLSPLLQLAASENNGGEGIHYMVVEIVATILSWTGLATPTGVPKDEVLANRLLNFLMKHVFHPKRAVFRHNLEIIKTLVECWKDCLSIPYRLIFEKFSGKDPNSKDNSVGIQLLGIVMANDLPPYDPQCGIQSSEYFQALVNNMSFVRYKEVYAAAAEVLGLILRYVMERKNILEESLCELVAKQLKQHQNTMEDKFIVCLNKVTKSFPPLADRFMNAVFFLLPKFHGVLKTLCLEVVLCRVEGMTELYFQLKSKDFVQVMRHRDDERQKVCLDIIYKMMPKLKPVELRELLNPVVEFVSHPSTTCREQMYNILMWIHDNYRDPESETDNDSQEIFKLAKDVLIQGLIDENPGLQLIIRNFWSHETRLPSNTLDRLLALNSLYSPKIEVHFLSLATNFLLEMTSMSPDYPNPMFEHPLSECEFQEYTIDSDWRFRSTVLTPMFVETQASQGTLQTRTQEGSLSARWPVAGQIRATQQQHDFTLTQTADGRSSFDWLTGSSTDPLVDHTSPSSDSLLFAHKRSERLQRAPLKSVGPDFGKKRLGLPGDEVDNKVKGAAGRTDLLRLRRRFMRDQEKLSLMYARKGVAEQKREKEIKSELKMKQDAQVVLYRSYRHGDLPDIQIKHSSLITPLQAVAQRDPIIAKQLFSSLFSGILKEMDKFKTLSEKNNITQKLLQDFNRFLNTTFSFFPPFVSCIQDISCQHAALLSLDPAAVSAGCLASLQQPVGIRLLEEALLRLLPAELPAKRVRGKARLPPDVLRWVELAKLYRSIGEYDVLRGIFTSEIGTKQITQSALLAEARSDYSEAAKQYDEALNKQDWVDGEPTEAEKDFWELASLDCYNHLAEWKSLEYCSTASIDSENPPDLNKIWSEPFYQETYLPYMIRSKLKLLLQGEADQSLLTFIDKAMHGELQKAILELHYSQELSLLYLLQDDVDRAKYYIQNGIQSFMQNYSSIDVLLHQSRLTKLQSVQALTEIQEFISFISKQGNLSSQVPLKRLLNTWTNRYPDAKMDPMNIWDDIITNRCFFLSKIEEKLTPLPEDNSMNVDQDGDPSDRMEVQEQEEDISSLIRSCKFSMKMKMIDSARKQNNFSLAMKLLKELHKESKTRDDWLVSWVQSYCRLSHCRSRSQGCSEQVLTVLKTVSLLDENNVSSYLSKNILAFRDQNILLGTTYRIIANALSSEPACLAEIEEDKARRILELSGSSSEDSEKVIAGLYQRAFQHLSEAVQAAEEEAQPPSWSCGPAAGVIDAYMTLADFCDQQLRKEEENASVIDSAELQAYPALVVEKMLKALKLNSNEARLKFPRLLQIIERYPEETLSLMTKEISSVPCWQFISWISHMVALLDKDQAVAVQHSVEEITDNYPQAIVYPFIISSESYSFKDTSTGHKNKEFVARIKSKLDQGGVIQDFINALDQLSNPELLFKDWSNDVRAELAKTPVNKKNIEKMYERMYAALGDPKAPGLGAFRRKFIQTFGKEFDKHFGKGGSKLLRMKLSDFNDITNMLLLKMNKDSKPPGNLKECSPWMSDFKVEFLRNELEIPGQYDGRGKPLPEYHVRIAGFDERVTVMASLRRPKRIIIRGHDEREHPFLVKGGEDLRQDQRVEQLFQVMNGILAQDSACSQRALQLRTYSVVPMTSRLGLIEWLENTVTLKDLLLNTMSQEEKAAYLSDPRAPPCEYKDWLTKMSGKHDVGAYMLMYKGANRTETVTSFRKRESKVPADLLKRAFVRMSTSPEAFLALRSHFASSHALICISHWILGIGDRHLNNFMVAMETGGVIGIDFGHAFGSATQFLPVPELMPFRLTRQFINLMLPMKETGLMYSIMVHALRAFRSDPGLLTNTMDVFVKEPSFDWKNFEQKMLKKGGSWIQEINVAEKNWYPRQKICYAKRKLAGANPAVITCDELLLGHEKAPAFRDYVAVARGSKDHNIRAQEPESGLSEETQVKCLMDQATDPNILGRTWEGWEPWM

Target: DNA-dependent protein kinase catalytic subunit (Homo sapiens, UniProt P78527)
Experiment: Binding affinity for DNA dependent protein kinase isolated from HeLa cells; Range is 20-120
Assay type: cell-based

## COC[C@H]1OC(=O)c2coc3c2[C@@]1(C)C1=C(C3=O)[C@@H]2CCC(=O)[C@@]2(C)C[C@H]1OC(C)=O [WORTMANNIN]
  Ki: 120 nM
